Target: BRD4 (Homo sapiens, UniProt O60885)
Test: BRD4 degradation assay (Western-blot / Simple Western) in 22RV1
Conditions: 22RV1 cells, target content as percentage of control (DMSO = 100%)

Cc1sc2c(c1C)C(c1ccc(C#CCN)cc1)=N[C@@H](CC13OCC(C)(CO1)CO3)c1nnc(C)n1-2 [Compound 9113]
BRD4 degradation of 22RV1 (200 nM 5 h): D (80%<D<100%)
